Assays:
[1] = tested on: healthy, non-dependent, opioid-experienced recreational drug users; conditions: Example 1
[2] = all treatments
[3] = tested on: opioid dependent drug users; conditions: Example 2
[4] = tested on: healthy, non-dependent, opioid-experienced recreational drug users; conditions: HMO 30 μg/kg IV

SMILES: CN1CC[C@]23c4c5ccc(O)c4O[C@H]2C(=O)CC[C@H]3[C@H]1C5 [HMO, Hydromorphone]
- Incidence of blurred vision [1]: 10.0%
- Incidence of euphoric mood (TEAE) [1]: 73.3%
- Incidence of feeling hot [1]: 46.7%
- Incidence of pruritus [1]: 40.0%
- Incidence of somnolence [1]: 60.0%
- Incidence of vomiting [1]: 13.3%
- V of HMO [2]: 350 to 375 L
- Incidence of TEAEs [3]: 77.8%
- Incidence of euphoric mood [3]: 33.3%
- Incidence of feeling hot [3]: 22.2%
- Incidence of pruritus [3]: 11.1%
- Duration of sustained decrease in pupil diameter (miosis) [4]: approximately 1 hour
- MPC [4]: 3.05 mm
- Time of mean peak decrease in pupil diameter ([4]; post-infusion): approximately 0.75 hours

Reference: patent US20170182031A1, “REDUCING DRUG LIKING IN A SUBJECT” (Purdue Pharma, priority 2014, published 2017)
